This data set deals with human P-gp. In words: in vitro. To be noted: MDCK-MDR1, pH 7.4.

On to `C[C@H]1C[C@H]2[C@@H]3CCC4=CC(=O)C=C[C@]4(C)[C@@]3(F)[C@@H](O)C[C@]2(C)[C@@]1(O)C(=O)CO` [BET, betamethasone], for which the efflux ratio was found to be 0.99 ± 0.07. As for `C[C@@H]1C[C@H]2[C@@H]3CCC4=CC(=O)C=C[C@]4(C)[C@@]3(F)[C@@H](O)C[C@]2(C)[C@@]1(O)C(=O)CO` [DEX, dexamethasone], the efflux ratio was found to be 1.03 ± 0.22.

These data come from publication PMC8626637, “Successful Prediction of Human Fetal Exposure to P-Glycoprotein Substrate Drugs Using the Proteomics-Informed Relative Expression Factor Approach and PBPK Modeling and Simulation” (Drug Metabolism and Disposition, 2021).
